Laboratory results reported in US11834463B2, “High affinity macrocyclic FKB51-inhibitors for treatment of psychiatric disorders” (priority 2020, dated 2023).

Target: T1, FKBP51FK1 (Homo sapiens, UniProt Q13451)
T1 sequence (Q13451 42-130 limits assumed): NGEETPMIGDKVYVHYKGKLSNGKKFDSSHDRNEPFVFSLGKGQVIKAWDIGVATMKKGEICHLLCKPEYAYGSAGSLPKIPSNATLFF
Test: biochemical
Conditions: FKBP51FK1 Ki [μM], Table 2; [a] standard error from three, [c] error from two independent measurements
Method: All macrocyclic compounds were tested in a competitive fluorescence polarization assay for binding towards FKBP51 as well as the homologs FKBP12, FKBP12.6 and FKBP52 (Table 1).
Example 8: […] of the Macrocyclic FKBP51 Ligands by SPPS

| Ki [µM] | SMILES |
| --- | --- |
| 17 | COc1ccc(CC[C@H]2OC(=O)[C@@H]3CCCCN3C(=O)[C@@H](C3CCCCC3)NC(=O)[C@H](C)NC(=O)COc3cccc2c3)cc1OC [Compound 91, (2R,5S,12R,15S)-12-cyclohexyl-2-[2-(3,4-dimethoxyphenyl)ethyl]-15-methyl-3,19-dioxa-10,13,16-triazatricyclo[18.3.1.0^5,10]tetracosa-1(24),20,22-triene-4,11,14,17-tetrone] |
| 5.1 | COc1ccc(CC[C@H]2OC(=O)[C@@H]3CCCCN3C(=O)[C@@H](C3CCCCC3)NC(=O)[C@@H]3CCCN3C(=O)COc3cccc2c3)cc1OC [Compound 92, (9S,12R,19S,22R)-12-cyclohexyl-22-[2-(3,4-dimethoxyphenyl)ethyl]-2,21-dioxa-5,11,14-triazatetracyclo[21.3.1.0^5,9.0^14,19]heptacosa-1(26),23(27),24-triene-4,10,13,20-tetrone] |
